Experimental data taken from US5962314A, “Calcium receptor-active molecules” (priority 1997, dated 1999).
“Also recorded” adds a separate entry of the source.

Tests used:
[1] = test system: bovine parathyroid cells; assay: PTH secretion from bovine parathyroid cells; type: cell-based
[2] = test system: cyclic AMP; type: cell-based, bovine

## NCCCNCCCCNCCCN [Spermine]
[1]
  effect on PTH secretion: inhibits PTH secretion; also recorded: inhibited PTH secretion to the same extent as extracellular Ca^2+
[2]
  effect on isoproterenol-induced increases in cyclic AMP: depressed isoproterenol-induced increases in cyclic AMP
